The assay addresses JAK1 (Homo sapiens, UniProt P23458). Put plainly: In vitro kinase inhibition assay, JAK1 kinase domain (JH1) with STAT5b substrate peptide. The settings on record: JAK1 JH1, in vitro kinase reaction; unit inferred. It counts as biochemical. As for the experimental part: Protein kinase assays, including high throughput kinase assays are known in the art as described in, e.g., in Babon et al. (2013) and Von Ahsen et al. (2005). In one exemplary embodiment 130 μM STAT5b peptide (SEQ ID NO:18 RRAKAADGYVKPQIKQVV) is incubated with 5 nM human JAK1 (see SEQ ID NO:11 for corresponding amino acid sequence) at 25° C. for 30-60 min in 20 mM Tris pH 8.0, 100 mM NaCl, 5 mM 2-mercaptoethanol, 0.2 mg ml^−1 bovine serum albumin, 2 mM MgCl2, 100 μM ATP and 1 μCi γ-[^32P]ATP. Recombinant trimeric complex CIS-SH2-Elongin B-Elongin C (see SEQ ID NOs:7, 14, and 15 for the corresponding amino acid sequences) is present at concentrations ranging from 0-30 μM. After incubation, the reaction is spotted onto P81 phosphocellulose paper and quenched in 5% H3PO4. The paper is then washed (4×200 ml, 15 min) with 5% H3PO4 and exposed to a phosphorimager plate. Quantitation is performed using phosphorimager software and IC50 curves are then calculated based on integrated pixel counts.
Kinase inhibition assays were performed essentially as described (Babon et al., 2012). […] Quantitation was performed using Fuji software and IC50 curves calculated using Graphpad Prism.

Amino acid sequences for entries named in this document (tags omitted). Residues count along the entry.
UniProt P23458, 875-1153 limits assumed: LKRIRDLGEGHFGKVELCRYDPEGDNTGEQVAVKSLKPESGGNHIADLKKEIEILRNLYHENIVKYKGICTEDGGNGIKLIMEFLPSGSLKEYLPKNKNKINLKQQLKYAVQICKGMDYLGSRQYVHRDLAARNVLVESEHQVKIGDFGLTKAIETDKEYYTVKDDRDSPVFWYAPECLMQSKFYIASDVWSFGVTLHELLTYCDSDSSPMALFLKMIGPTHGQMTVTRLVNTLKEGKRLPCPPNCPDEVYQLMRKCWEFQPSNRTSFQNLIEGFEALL

Our source for the IC50 values is patent US11104735B2, “Inhibition of cytokine-induced SH2 protein in NK cells” (The Walter and Eliza Hall Institute of Medical Research, priority 2015, dated 2021).

B1: CIS-ΔN34: human CIS lacking the N-terminal 34 residues, in complex with elongins B and C (protein, UniProt Q9NSE2 35-258, looked up, fragment)
chain: QPLPAGAFLEEVAEGTPAQTESEPKVLDPEEDLLCIAKTFSYLRESGWYWGSITASEARQHLQKMPEGTFLVRDSTHPSYLFTLSVKTTRGPTNVRIEYADSSFRLDSNCLSRPRILAFPDVVSLVQHYVASCTADTRSDSPDPAPTPALPMPKEDAPSDPALPAPPPATAVHLKLVQPFVRRSSARSLQHLCRLVINRLVADVDCLPLPRRMADYLRQYPFQL
modifications: complex with elongins B and C
notes: human CIS lacking the N-terminal 34 residues, in complex with elongins B and C
Turning to B1, the IC50 was approximately 96.8 µM.
